Test results reported in patent US11167037B2, “Antibody drug conjugate platform using bispecific antibody” (SEOUL NATIONAL UNIVERSITY R&DB FOUNDATION, priority 2016, dated 2021).

Test system: A549 cells
Assay: Cell viability assay (Cell Titer-Glo, 72 hrs)
Type: cell-based, human
Description: A549 cells were seeded in 50 μL RPMI-1640 medium in black-walled 96-well plates (4,000 cells per well) and allowed to adhere overnight at 37° C. in 5% CO2 and humidified atmosphere. […] In the control experiments, instead of ERC6, palivizumab (Boehringer Ingelheim Pharma), or cetuximab (Merck K GaA) was used. The cotinine-duocarmycin and antibody dilutes in 50 μL medium were added to each well, and cultured for 72 hrs. After adding Cell Titer-Glo reagent (Promega Corp.) to each well, luminescence signals were measured using a microplate luminometer (PerkinElmer, Waltham, Mass., USA) according to the manufacturer's instructions. All experiments were conducted in triplicate. The relative cell viability was calculated by dividing by the control luminescence signal [% viability=(Test−Background)/(Control−Background)×100].

## cetuximab
  cytotoxic / anti-proliferative effect (relative cell viability): could not significantly inhibit the proliferation
